Data from PubChem BioAssay AID2012 (Sanford-Burnham Center for Chemical Genomics, 2009).
The list shows a part of the results, in another mix than the full data. Some of these compounds have results that are not shown, active ones among them. Active and inactive are the calls of the source. No rule for the calls is given here.

These compounds were tested against Eukaryotic translation initiation factor 4H (Homo sapiens) (UniProt Q15056) (assay: eIF4H binding inhibition – biochemical, uHTS, fluorescence polarization, translation initiation inhibitor project, primary screen (AID 2012)). Conditions: eIF4H fluorescence polarization binding assay; at 35 µM; active compounds read high.

For `COc1cc(C(=O)NCC2(N(C)C)CCCCC2)c([N+](=O)[O-])cc1OC`, which inhibition is on record?
The inhibition was inactive: 5.7%.

For `CN(C)C1(CNC(=O)c2ccc(Br)cc2)CCCCC1`, which inhibition is on record?
The inhibition was inactive: 3.4%.

For `O=C(NCC1(N2CCCCC2)CCCCC1)c1cccc(Cl)c1`, which inhibition is on record?
Its inhibition is inactive: 3.4%.

With `COc1cccc(C(=O)NCC2(N3CCCCC3)CCCCC2)c1` as the compound, how does the inhibition read?
The inhibition was inactive: 3.3%.

With `COc1ccc(Cl)cc1C(=O)NCC1(N(C)C)CCCCC1` as the compound, how does the inhibition read?
Its inhibition is inactive: -5%.

How did the inhibition turn out when `O=C(OC1CN2CCC1CC2)C(CO)(c1ccccc1)c1ccccc1` (centres undefined) was run?
The inhibition was inactive: -1.2%.

For `CN(C)c1cccc(C(=O)NCC2(N(C)C)CCCCC2)c1`, which inhibition is on record?
The inhibition was inactive: -1.1%.

`CC(C)Oc1ccc(C(=O)NCC2(N(C)C)CCCCC2)cc1` was tested. Which inhibition did it give?
The inhibition was inactive: 8%.

For `COc1ccc(Br)c(C(=O)NCC2(N3CCCCC3)CCCCC2)c1`, which inhibition is on record?
Its inhibition is inactive: 0.1%.

For `CN1[C@@H]2CC[C@H]1CC(OC(=O)C(O)(c1ccccc1)c1ccccc1)C2` (some centres undefined), which inhibition is on record?
The inhibition was inactive: -6%.

How did the inhibition turn out when `O=C(NCC1(N2CCCCC2)CCCCC1)c1cc([N+](=O)[O-])ccc1Cl` was run?
Its inhibition is inactive: 3.6%.

With `Cc1ccc(C(=O)NCC2(N3CCCCC3)CCCCC2)cc1` as the compound, how does the inhibition read?
Its inhibition is inactive: 4%.

`CC(C)N1C(=O)CC2(CCN(CCOC(=O)C(O)(c3ccccc3)c3ccccc3)CC2)C1=O` was tested. Which inhibition did it give?
Its inhibition is inactive: -8.1%.

For `CCN(CC)CC(C)C(C)OC(=O)C(O)(c1ccccc1)c1ccccc1` (centres undefined), which inhibition is on record?
Its inhibition is inactive: -0.8%.

For `COc1cc(SC)ccc1C(=O)NCC1(N(C)C)CCCCC1`, which inhibition is on record?
Its inhibition is inactive: 0%.

How did the inhibition turn out when `Cc1ccccc1C(=O)NCC1(N2CCCCC2)CCCCC1` was run?
The inhibition was inactive: 3%.

For `CN(C)c1ccc(C(=O)NCC2(N(C)C)CCCCC2)cc1`, which inhibition is on record?
Its inhibition is inactive: 10%.

How did the inhibition turn out when `CN(C)C1CCCC1OC(=O)C(O)(c1ccccc1)c1ccccc1` (centres undefined) was run?
The inhibition was inactive: -6.7%.

For `CCN1CCCC(OC(=O)C2(O)c3ccccc3C=Cc3ccccc32)C1` (centres undefined), which inhibition is on record?
Its inhibition is inactive: 6.9%.

`Cc1cc(C(=O)NCC2(N3CCCCC3)CCCCC2)ccc1[N+](=O)[O-]` was tested. Which inhibition did it give?
Its inhibition is inactive: -8.7%.

With `O=C(NCC1(N2CCCCC2)CCCCC1)c1cccc(Br)c1` as the compound, how does the inhibition read?
The inhibition was inactive: -1%.

How did the inhibition turn out when `COc1ccc(C(=O)NCC2(N(C)C)CCCCC2)cc1` was run?
Its inhibition is inactive: -4.6%.

`C=CCN1CCN(CCOC(=O)C(O)(c2ccccc2)c2ccccc2)CC1` was tested. Which inhibition did it give?
Its inhibition is inactive: -8.2%.

For `O=C(NCC1(N2CCCCC2)CCCCC1)c1cc(F)c(F)cc1Cl`, which inhibition is on record?
The inhibition was inactive: -11.2%.
